For the assay, the target named is human μ-opioid receptor (OPRM1) (Homo sapiens, UniProt P35372). Nature of the assay: cell-based.

Protein sequences, listed by entry. Tags and fused reporters are not part of them.
UniProt P35372, whole entry: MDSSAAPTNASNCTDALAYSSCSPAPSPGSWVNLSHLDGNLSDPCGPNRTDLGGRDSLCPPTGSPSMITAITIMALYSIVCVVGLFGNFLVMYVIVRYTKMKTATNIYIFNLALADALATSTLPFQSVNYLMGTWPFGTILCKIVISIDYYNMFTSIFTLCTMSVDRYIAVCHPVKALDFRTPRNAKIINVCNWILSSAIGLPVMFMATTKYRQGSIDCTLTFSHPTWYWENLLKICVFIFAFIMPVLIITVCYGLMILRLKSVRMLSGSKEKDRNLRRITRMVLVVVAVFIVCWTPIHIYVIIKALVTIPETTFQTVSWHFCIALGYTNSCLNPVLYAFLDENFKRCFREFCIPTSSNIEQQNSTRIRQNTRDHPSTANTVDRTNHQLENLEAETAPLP

As a reminder, the EC50 is the concentration giving half of the maximal effect. Low values mean greater potency, high ones weaker potency. As for `Oc1cccc2c1O[C@H]1CN(C[C@H]3C[C@@H]3c3ccccc3)[C@H]3CCC[C@@]21C3` [(+)-17, (3S,6aR,11aR)-2-(((1S,2S)-2-Phenylcyclopropyl)methyl)-1,3,4,5,6,11a-hexahydro-2H-3,6a-methanobenzofuro[2,3-c]azocin-10-ol], the half-maximal effective concentration (EC50) was above 10000 nM.

What is called Emax is the greatest response seen or fitted, relative to the assay's reference. Compound `Oc1cccc2c1O[C@H]1CN(CCc3ccccc3)[C@H]3CCC[C@@]21C3` [(-)-1, (3S,6aR,11aR)-2-Phenethyl-1,3,4,5,6,11a-hexahydro-2H-3,6a-methano-benzofuro[2,3-c]azocin-10-ol] showed an EC50 of 2.66 nM. Also, the Emax (read-out: MOR Agonist %Emax ± SEM) is 35%.

The values are drawn from article PMC9785231, “Synthesis and Pharmacological Evaluation of Enantiopure N-Substituted Ortho-c Oxide-Bridged 5-Phenylmorphans” (Molecules, 2022).
